Measurements from ChEMBL document CHEMBL2311318, “Lead optimization of a dihydropyrrolopyrimidine inhibitor against phosphoinositide 3-kinase (PI3K) to improve the phenol glucuronic acid conjugation” (Bioorg Med Chem Lett, 2013).

Test: Clearance in BALB/c nu mouse at 10 mg/kg, iv
Assay type: ADME, organism-based
Set-up: dose 10 mg/kg, route intravenous
Conditions: in vivo

clearance: 35.9 mL/min/kg
Compound: Nc1ncc(-c2nc(N3CCOCC3)nc3c2CCN3c2cccnc2)cn1
